Source: publication PMC2358886, “Evolution of pharmacologic specificity in the pregnane X receptor” (BMC Evolutionary Biology, 2008)

How the values were obtained:
human PXR = target: T1, human PXR (Homo sapiens, UniProt O75469)
T1 sequence (O75469 1-434): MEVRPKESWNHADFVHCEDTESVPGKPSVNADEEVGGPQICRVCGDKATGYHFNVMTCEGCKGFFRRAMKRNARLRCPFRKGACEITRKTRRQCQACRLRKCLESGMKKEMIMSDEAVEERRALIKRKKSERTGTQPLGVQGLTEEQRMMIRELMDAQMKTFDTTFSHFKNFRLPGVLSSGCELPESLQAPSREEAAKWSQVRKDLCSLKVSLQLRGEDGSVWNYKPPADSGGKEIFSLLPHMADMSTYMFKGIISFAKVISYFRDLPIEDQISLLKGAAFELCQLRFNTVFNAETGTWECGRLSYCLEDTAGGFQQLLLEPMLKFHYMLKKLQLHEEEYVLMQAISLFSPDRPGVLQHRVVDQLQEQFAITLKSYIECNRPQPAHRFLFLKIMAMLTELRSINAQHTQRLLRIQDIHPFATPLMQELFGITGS

zebrafish PXR = target: T2, zebrafish PXR (Danio rerio, UniProt A5WYG8)
T2 sequence (A5WYG8 144-430): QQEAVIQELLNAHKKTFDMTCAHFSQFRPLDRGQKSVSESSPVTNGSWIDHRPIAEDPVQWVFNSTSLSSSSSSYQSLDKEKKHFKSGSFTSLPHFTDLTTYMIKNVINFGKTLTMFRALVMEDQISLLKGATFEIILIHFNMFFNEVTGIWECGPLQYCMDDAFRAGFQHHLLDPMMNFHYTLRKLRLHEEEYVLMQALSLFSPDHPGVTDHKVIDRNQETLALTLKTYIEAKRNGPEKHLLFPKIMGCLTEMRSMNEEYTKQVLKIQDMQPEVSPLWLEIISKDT

Substance: Hyperforin [MI19]
- hPXR Activity (human PXR): 7.22
- hPXR Efficacy (human PXR): 1.29
- zfPXR Activity (zebrafish PXR): None
- Toxicity (HepG2 cells): 50 µM
